Assay results taken from patent publication US8871706B2, “Method for inhibiting inflammation and pre-inflammatory cytokine/chemokine expression using a ghrelin analogue” (Ipsen Pharma S.A.S., priority 2007, dated 2014).

The chains behind the UniProt entries cited, without tags or fusion partners.
UniProt Q92847, whole entry: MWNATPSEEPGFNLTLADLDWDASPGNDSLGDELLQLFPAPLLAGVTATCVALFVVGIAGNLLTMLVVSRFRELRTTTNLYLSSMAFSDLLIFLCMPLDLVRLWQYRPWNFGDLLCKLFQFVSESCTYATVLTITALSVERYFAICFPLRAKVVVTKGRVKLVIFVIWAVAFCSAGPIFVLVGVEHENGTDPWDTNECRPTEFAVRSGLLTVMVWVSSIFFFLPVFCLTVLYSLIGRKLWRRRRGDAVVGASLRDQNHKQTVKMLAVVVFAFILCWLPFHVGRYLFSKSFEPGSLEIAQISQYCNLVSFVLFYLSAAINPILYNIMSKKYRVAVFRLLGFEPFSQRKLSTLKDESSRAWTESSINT

Target: T1, human recombinant GHS receptor (Homo sapiens, UniProt Q92847)
T1 construct: The full length human GHS-R was subcloned into the mammalian expression vector pcDNA 3.1; expressed in transfected cells; membranes prepared by homogenization
Test: GHS-Receptor Binding Assay
Conditions: (125I)ghrelin, membranes of CHO-K1 cells expressing hGHS-R, 60 minute incubation at 4° C.

- Ki: 182 nM
SMILES: O=C(N[C@H](Cc1c[nH]c2ccccc12)C(=O)N[C@H](Cc1ccc2ccccc2c1)c1nc(-c2ccccc2)c[nH]1)C1CCNCC1 [#124]
